The source of these data is PubChem BioAssay AID602409 (Sanford-Burnham Center for Chemical Genomics, 2012).

Protein sequences, listed by entry. Tags and fused reporters are not part of them. Lines headed by an entry give the natural chain unless they say otherwise; changes in a name come on top.
UniProt O00574: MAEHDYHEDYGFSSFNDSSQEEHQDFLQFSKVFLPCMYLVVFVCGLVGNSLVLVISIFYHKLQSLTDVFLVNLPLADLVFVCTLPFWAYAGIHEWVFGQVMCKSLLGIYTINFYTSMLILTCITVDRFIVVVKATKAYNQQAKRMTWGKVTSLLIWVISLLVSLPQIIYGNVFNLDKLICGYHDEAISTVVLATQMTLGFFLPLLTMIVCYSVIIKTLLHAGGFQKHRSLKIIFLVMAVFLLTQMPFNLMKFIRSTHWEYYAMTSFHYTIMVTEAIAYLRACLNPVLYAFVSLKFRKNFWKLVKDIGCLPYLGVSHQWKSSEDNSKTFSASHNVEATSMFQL

The entries are a selection whose mix differs from that of the whole data set. Calls of active or inactive are those of the source.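 Rule for the calls: active = mean inhibition over four retests above 40%; inactive = the rest.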

The experiment has as its target C-X-C chemokine receptor type 6 (Homo sapiens) (UniProt O00574). The experiment can be described thus: CXCR6 receptor antagonists, confirmation, cell-based, single concentration, beta-arrestin, luminescence (AID 602409).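 Note: receptor stimulated with 10 nM CXCL16 agonist; beta-galactosidase fragment complementation upon beta-arrestin recruitment to receptor; plate controls were CXCL16 plus DMSO for no effect and DMSO without CXCL16 for full effect.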 The settings on record: CHO-K1 CXCR6 PathHunter beta-arrestin, at 20 µM, stronger effect = higher value.
As usually defined, the inhibition is the relative decrease from the control value, in per cent. `O=c1c2cc([N+](=O)[O-])ccc2[nH]c2c([N+](=O)[O-])cc([N+](=O)[O-])cc12`: the inhibition was active: 41.9%.

Take `CSc1ccc(Nc2c([N+](=O)[O-])cc([N+](=O)[O-])cc2[N+](=O)[O-])cc1`: the inhibition was active: 49.2%.

As for `CN(C)C(=O)c1cc([N+](=O)[O-])cc2c1-c1c(cc([N+](=O)[O-])cc1[N+](=O)[O-])C2=O`, the inhibition was active: 44.7%.
